The numbers were not newly measured in patent publication US8609661B2, “Pyrimido-pyrrolo-quinoxalinedione inhibitors of cystic fibrosis transmembrane conductance regulator protein and uses therefor” (The Regents of the University of California, priority 2009, dated 2013), which cites them from elsewhere.

Protein sequences, listed by entry. Tags and fused reporters are not part of them.
UniProt P13569, whole entry, species assumed: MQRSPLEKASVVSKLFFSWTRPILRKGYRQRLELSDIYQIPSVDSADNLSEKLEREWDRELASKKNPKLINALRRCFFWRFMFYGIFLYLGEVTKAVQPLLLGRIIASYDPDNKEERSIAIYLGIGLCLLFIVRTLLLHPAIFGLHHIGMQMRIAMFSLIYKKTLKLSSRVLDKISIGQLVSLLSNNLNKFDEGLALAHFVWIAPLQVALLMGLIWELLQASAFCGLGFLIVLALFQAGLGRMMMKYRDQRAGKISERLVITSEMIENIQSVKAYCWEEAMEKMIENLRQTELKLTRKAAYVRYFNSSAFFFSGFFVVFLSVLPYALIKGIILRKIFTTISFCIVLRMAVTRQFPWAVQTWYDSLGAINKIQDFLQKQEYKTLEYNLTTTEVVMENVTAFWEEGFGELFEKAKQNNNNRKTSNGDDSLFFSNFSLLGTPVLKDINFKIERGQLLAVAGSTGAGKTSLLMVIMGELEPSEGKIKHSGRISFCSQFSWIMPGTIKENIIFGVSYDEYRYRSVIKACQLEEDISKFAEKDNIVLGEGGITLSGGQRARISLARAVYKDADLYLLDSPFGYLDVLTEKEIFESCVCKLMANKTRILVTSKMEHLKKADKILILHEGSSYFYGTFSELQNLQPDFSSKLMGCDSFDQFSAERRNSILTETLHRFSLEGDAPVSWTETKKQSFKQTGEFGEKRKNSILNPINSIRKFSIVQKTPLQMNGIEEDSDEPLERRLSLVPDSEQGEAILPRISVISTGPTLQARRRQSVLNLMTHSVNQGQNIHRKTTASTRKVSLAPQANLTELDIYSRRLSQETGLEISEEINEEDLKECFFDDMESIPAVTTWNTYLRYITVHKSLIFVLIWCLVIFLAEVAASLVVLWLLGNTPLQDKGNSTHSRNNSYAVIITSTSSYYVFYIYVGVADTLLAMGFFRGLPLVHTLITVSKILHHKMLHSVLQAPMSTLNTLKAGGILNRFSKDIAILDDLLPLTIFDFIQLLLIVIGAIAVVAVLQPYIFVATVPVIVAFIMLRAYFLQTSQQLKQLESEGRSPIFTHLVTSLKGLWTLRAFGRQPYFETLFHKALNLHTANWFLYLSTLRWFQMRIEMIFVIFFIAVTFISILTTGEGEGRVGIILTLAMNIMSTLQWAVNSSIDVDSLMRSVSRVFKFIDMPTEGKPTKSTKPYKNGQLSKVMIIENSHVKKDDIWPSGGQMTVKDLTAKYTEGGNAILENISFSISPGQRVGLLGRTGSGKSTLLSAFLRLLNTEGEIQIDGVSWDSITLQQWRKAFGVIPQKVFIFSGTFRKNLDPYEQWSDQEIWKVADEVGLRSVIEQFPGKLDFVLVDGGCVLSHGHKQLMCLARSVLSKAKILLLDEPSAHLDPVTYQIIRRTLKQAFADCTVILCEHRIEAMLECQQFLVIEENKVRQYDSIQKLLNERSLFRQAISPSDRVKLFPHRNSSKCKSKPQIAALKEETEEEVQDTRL

The data set deals with CFTR (Homo sapiens, UniProt P13569). To be noted: literature; depending on cell type and membrane potential; read-out: IC50 for CFTR chloride conductance block; cited from earlier work.

As a reminder, the IC50 is the concentration needed to halve the response being measured. On to CFTRinh-172, for which the IC50 is 0.3 to 3 µM.
